# Ab-95 light chain CDR variants: yeast mating affinities

The target is the same throughout: PDVDLGDISGINAS, from the HR2 region of SARS-CoV-2 spike.

Parent scFv Ab-95: VH joined to VL by a 15-residue (Gly4Ser)3 linker. Changes lie in the light chain CDRs alone.
VH: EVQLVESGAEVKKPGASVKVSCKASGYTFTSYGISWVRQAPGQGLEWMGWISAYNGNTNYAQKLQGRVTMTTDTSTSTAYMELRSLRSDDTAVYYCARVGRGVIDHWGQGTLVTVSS
VL: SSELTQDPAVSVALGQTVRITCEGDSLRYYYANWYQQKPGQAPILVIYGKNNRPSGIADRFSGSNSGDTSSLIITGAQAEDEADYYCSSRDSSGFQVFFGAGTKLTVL

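Phage display of a naive human antibody library on the peptide gave the parent. The library (AAYL52) carries one to three amino acid substitutions per variant, with no insertions or deletions. The assay is AlphaSeq: two haploid yeast populations carry antibody and antigen on their surface. Binding brings cells together so that they mate, and sequencing counts the barcode pairs among the diploids. Read counts were normalised to the haploid input and turned into Kd by a linear fit to BCL2-family pairs of known affinity, for each replicate. Mating was done three times.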

The parent's light chain CDRs are EGDSLRYYYAN, GKNNRPS, SSRDSSGFQVF; each variant's own CDRs replace them letter for letter. All variants listed here change A32 of the VL, counted from its first residue. Numbers give log10(Kd / nM), so 0 is 1 nM and 3 is 1 µM. Smaller is tighter. Averages over replicates are reported, and they cover detected replicates only. An entry "ND" has no value in the source: the pair was not observed among the diploids in that replicate. This suggests poor binding but is not conclusive.

EGDSLRYYYMN / GKNNWPS / SSRDSSGFQVN: ND, 4.51, ND.
EGDSLRYYYEN / GKNNRPS / SSRDSSGFQVN: 3.47, ND, ND.
FGDSLRYYYFN / GKNNRPS / SSRDSSIFQVF: 4.11, ND, ND.
EGDSLRYYYPN / GKNNRPS / SSRDRSAFQVF: 2.42, 2.97, 2.34 (mean 2.58).
EGDSLRYYYSN / GKNWRPS / SSEDSSGFQVF: 4.33, 6.02, ND (mean 5.18).
EGDSGRYYYGN / GKNNRPS / SSRDESGFQVF: 3.69, ND, ND.
EGDSLAYYQIN / GKNNRPS / SSRDSSGFQVF: 2.65, 2.32, 2.15 (mean 2.37).
EGDSLRYYYDN / FKNNRWS / SSRDSSGFQVF: ND, ND, 4.10.
EGDSLRYYYLN / GKNTRPS / SSRDSSGFQIF: ND, ND, 4.28.
EGDSLAYYYMN / GKNNRPS / SCRDSSGFQVF: 2.60, 2.59, 2.04 (mean 2.41).
EGDSLRYYYMN / GKNNRPV / SSRDSSGFQVC: ND, 4.55, 3.68 (mean 4.11).
EGDFLRYYYGF / GKNNRPS / SSRDSSGFQVF: ND, ND, ND.
EGDHLRYYYWN / GKNNRPS / SSRDASGFQVF: ND, 4.86, 4.10 (mean 4.48).
EGDSLRYYYDN / NKNNRPS / SSRDSTGFQVF: 5.39, ND, ND.
EGDSLRYYYLY / GKNNRPS / SSRDSSGFQVF: ND, 4.02, ND.
EGDSLRYYYQN / GKNNRPS / SSRDTSGFQFF: ND, ND, ND.
EGDSLRYYYIN / GPNNRPS / SSRDSSNFQVF: 3.36, 3.58, 3.44 (mean 3.46).
ERDSLRYYYHN / GKNNRPS / SSRDSSGFQVE: 3.40, 3.48, 3.07 (mean 3.32).
EGDSLIYYYDN / GKNNRPS / SSRDSSGFNVF: 1.75, 1.94, 1.39 (mean 1.69).
EGDSLRYYYHN / GMNNFPS / SSRDSSGFQVF: ND, ND, ND.
EGDSLRGYYKN / GKNNRPS / SSFDSSGFQVF: 3.17, 3.12, 3.04 (mean 3.11).
ENDSLRYYYMN / GKNNRPS / SSRDSSGFQDF: 2.68, 2.82, 2.76 (mean 2.75).
EGDSLRYYYRN / GKNNRTS / SSEDSSGFQVF: 2.47, ND, ND.
EGDVLRYYYKN / GKNNRPS / SSRDSSDFQVF: 4.17, 3.43, 3.53 (mean 3.71).
EGDSLRYYYIN / GKNNRPG / SSRDSSGFQVY: 2.38, 2.45, 2.03 (mean 2.29).
EGCSLRYYYEN / GKNGRPS / SSRDSSGFQVF: ND, 3.60, ND.
EGDKLRYYYVN / GKNNRPS / SSRDSSGFQKF: ND, ND, ND.
EGDSLRYYYYN / GKNNRPS / SKRDSSGFQVF: ND, ND, ND.
EGDSLRYYYHN / GKNNRPS / SSRDASGFQVT: ND, ND, 4.44.
NGDSLRYYYDN / GKNDRPS / SSRDSSGFQVF: 1.63, 1.67, 1.59 (mean 1.63).
EGDSLSYYYLN / GKNNRPS / SSRDSPGFQVF: ND, ND, ND.
EGDSLRYVYDN / GKNNRRS / SSRDSSGFQVF: ND, 3.76, 3.76 (mean 3.76).
EGDSLRYYYDN / GKNNRPS / SSRDWSGSQVF: 3.12, 2.78, 2.74 (mean 2.88).

The 6 strongest on average among those seen in every replicate, once more:

Variant NGDSLRYYYDN / GKNDRPS / SSRDSSGFQVF showed 1.63, 1.67, 1.59 (mean 1.63).
Variant EGDSLIYYYDN / GKNNRPS / SSRDSSGFNVF showed 1.75, 1.94, 1.39 (mean 1.69).
Variant EGDSLRYYYIN / GKNNRPG / SSRDSSGFQVY showed 2.38, 2.45, 2.03 (mean 2.29).
Variant EGDSLAYYQIN / GKNNRPS / SSRDSSGFQVF showed 2.65, 2.32, 2.15 (mean 2.37).
Variant EGDSLAYYYMN / GKNNRPS / SCRDSSGFQVF showed 2.60, 2.59, 2.04 (mean 2.41).
Variant EGDSLRYYYPN / GKNNRPS / SSRDRSAFQVF showed 2.42, 2.97, 2.34 (mean 2.58).

Nonspecific signal, from three strains lacking the peptide, appeared in 28% of pairings of library AAYL52, centred on 3.91 (5% of these signals below 2.90); values are not corrected for it.

Source: Engelhart et al. 2022 (doi:10.1038/s41597-022-01779-4), MIT Lincoln Laboratory and A-Alpha Bio; data file from the FLAb repository.